Tested on: Akt
Assay: Akt polypeptide kinase assay (Akt immunoprecipitated from treated HUVEC; histone H2B or eNOS peptide substrate)
Type: cell-based, human
Settings: lysates of HUVEC treated with 1.0 μM simvastatin or 100 ng/ml VEGF
Protocol: FIG. 2a depicts a representative autoradiogram of phosphorylation histone H2B (2 μg) by immunoprecipitated Akt. […] Under some conditions, cells were transfected with an adenovirus construct encoding dominant negative form of Akt1 (Ad-dnakt) 24 hours prior to drug treatment. Immunoprecipitated Akt was incubated with histone H2B (2 μg) for 30 minutes at 30° C. and reaction was terminated by adding SDS-sample buffer. Proteins were separated by SDS-PAGE and the extent of histone H2B phosphorylation was visualized by autoradiography.
Akt was immunoprecipitated and incubated with 25 μg eNOS peptide (wild: eNOS peptide corresponding to positions including its functional site serine 1179 residue. S1179A: the mutant peptide where the serine residue phosphorylated by Akt changed to alanine). […] Results are presented as mean ±S.E.M. (n=5-7, *p<0.05).
For assessment of Akt polypeptide kinase activity in vitro, substrate (2 μg histone H2B or 25 μg eNOS peptide) was incubated with Akt immunoprecipitated from cell lysate using goat polyclonal anti-Akt1 antibody (Santa Cruz) as described previously. […]

Substance: VEGF
- Akt polypeptide kinase activity toward histone H2B: increased

Reference: patent US6689807B1, “HMG CoA reductase inhibitors for promoting angiogenesis” (priority 2000, dated 2004)
